Measured values: ChEMBL document CHEMBL3232716, “Tailoring cytotoxicity of antimicrobial peptidomimetics with high activity against multidrug-resistant Escherichia coli” (J Med Chem, 2014)

Columns and labels:
[1] = Cytotoxicity against rat IEC-6 cells after 1 hr by MTS/PMS assay; assay type: cell-based; conditions: IEC-6, 1 h
In short: (§1)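 Monolayers (passage 4–10) grown ~21–25 h to ~90% confluence. Seeding per well: HeLa 8000, HepG2 23 000, NIH 3T3 22 000, IEC-6 16 000, Caco-2 25 000. Cells washed with HBSS/10 mM Hepes pH 7.4 and exposed 1 h at 37 °C, 50 rpm, to compound 0–2000 μM in culture medium. MTS 240 μg/mL/PMS 2.4 μg/mL for 1.5–4 h, A492. Viability referenced to SDS and untreated controls; IC50 from one biological replicate in triplicate.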

[2] = Cytotoxicity against mouse NIH/3T3 cells after 1 hr by MTS/PMS assay; assay type: cell-based; conditions: NIH3T3, 1 h; in short: as §1

## CC[C@H](C)[C@H](NC(=O)CN)C(=O)NCC(=O)N[C@@H](C)C(=O)N[C@H](C(=O)N[C@@H](CC(C)C)C(=O)N[C@@H](CCCCN)C(=O)N[C@H](C(=O)N[C@@H](CC(C)C)C(=O)N[C@H](C(=O)N[C@H](C(=O)NCC(=O)N[C@@H](CC(C)C)C(=O)N1CCC[C@H]1C(=O)N[C@@H](C)C(=O)N[C@@H](CC(C)C)C(=O)N[C@H](C(=O)N[C@@H](CO)C(=O)N[C@@H](Cc1c[nH]c2ccccc12)C(=O)N[C@H](C(=O)N[C@@H](CCCCN)C(=O)N[C@@H](CCCNC(=N)N)C(=O)N[C@@H](CCCCN)C(=O)N[C@@H](CCCNC(=N)N)C(=O)N[C@@H](CCC(N)=O)C(=O)N[C@@H](CCC(N)=O)C(N)=O)[C@@H](C)CC)[C@@H](C)CC)[C@@H](C)O)[C@@H](C)O)C(C)C)C(C)C [MELITTIN]
[1]
  IC50: 2.2 µM
[2]
  IC50: 6.4 µM
